ChEMBL document CHEMBL3588796, “Potency enhancement of the κ-opioid receptor antagonist probe ML140 through sulfonamide constraint utilizing a tetrahydroisoquinoline motif” (Bioorg Med Chem, 2015)

Protein sequences, listed by entry. Tags and fused reporters are not part of them. Lines headed by an entry give the natural chain unless they say otherwise; changes in a name come on top.
UniProt P41145: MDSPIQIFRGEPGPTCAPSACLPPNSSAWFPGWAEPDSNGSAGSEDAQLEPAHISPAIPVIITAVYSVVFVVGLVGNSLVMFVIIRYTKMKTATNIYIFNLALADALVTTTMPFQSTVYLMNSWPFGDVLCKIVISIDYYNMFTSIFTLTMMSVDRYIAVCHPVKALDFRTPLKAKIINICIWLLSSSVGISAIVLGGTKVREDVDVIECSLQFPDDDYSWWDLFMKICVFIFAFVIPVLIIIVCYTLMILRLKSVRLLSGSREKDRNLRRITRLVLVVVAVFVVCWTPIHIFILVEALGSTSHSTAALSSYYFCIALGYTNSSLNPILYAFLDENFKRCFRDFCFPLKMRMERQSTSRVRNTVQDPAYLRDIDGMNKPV

How the values were obtained:
[1] = molecular target: T1, Kappa-type opioid receptor (Homo sapiens, UniProt P41145); experiment: Antagonist activity against human kappa opioid receptor expressed in human U2OS cells co-expressing beta-arrestin2 pre-treated for 15 mins before U69,593 stimulation for 90 mins by DiscoveRx beta-arrestin2 recruitment based PathHunter assay relative to control; type: cell-based; design: concentration or dose not given beside the values
In short: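 U2OS-hKOR-βarrestin2 PathHunter cells, 5,000 per well, plated overnight in Opti-MEM with 1% FBS. Antagonist pretreatment 15 min at 37 °C, then 1 μM U69,593 for 90 min at 37 °C. Detection reagent 60 min at room temperature; chemiluminescence read-out. Concentration-response curves fitted by three-parameter regression; n ≥ 3 independent experiments.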

[2] = molecular target: T1, Kappa-type opioid receptor; experiment: Antagonist activity against HA-tagged human recombinant kappa opioid receptor expressed in CHO cells assessed as inhibition of U69,593-induced ERK phosphorylation pre-incubated with compound before U69,593 stimulation for 10 mins relative to control; type: cell-based; design: concentration or dose not given beside the values
In short: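 hKOR-CHO cells, 15,000 per well, plated overnight at 37 °C and serum-starved 1 h. Compound added, then 100 nM U69,593 for 10 min at 37 °C. Fixed cells stained overnight at 4 °C for phospho- and total ERK1/2. In-cell western read by infrared imaging at 700/800 nm. Three-parameter nonlinear fit; 2–4 replicates per experiment, n ≥ 3.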

**Q.** Which inhibition [1] does the source give for `Cc1ccc(S(=O)(=O)N(C)Cc2ccc(C(=O)N(C)CCN(Cc3ccccc3)C(C)C)cc2)cc1` here?
**A.** The inhibition was > 86%.

**Q.** What about the inhibition [2] of the same compound?
**A.** Its inhibition is > 86%.
